The species entered for this assay is Cricetulus griseus. The assay is described as follows: Evaluated for hypersensitivity factor (HF) (HF = IC50 AA8 / IC50 UV-4) values are intra experiment ratios. It counts as functional.

For the compound `Cc1cccc(N(CCCl)CCCl)c1`, the Ratio was 50.

These data come from ChEMBL document CHEMBL1124922 (J Med Chem, 1990).
